# Apparent affinities of Ab-14 variants for a coronavirus HR2 peptide

Values reported by Engelhart et al. 2022, doi:10.1038/s41597-022-01779-4 (FLAb copy).

Target peptide (SARS-CoV-2 spike, HR2 region): PDVDLGDISGINAS

Ab-14 is the parent antibody, in scFv form: VH, then the linker GGGGSGGGGSGGGGS, then VL. The heavy chain is unchanged in all variants.
VH: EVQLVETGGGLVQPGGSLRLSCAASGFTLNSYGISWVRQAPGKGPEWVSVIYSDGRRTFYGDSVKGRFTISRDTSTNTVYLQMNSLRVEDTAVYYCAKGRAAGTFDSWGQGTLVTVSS
VL: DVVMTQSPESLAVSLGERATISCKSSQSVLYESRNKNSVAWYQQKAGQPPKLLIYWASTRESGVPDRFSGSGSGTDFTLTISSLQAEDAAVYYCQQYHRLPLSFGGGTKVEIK

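Phage display of a naive human antibody library on the peptide gave the parent. AAYL50 was designed without a model: most single CDR substitutions and a random sample of double and triple ones. The assay is AlphaSeq: two haploid yeast populations carry antibody and antigen on their surface. Binding brings cells together so that they mate, and sequencing counts the barcode pairs among the diploids. The ratio of observed to expected reads was calibrated, replicate by replicate, on BCL2-family standards whose Kd was known from biolayer interferometry. Each pool was mated in three replicate cultures.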

The whole VL of each variant is written out.
Affinities are written as log10 Kd with Kd in nM; a lower number is a better binder.
A mean of the replicates is given; it leaves out those without a signal.
"ND" means that the variant was in the library but no mating with the target was seen in that replicate; the authors take this as a sign of poor binding, and no number exists.
Three control strains display no target. For library AAYL50, 18% of the pairings with them gave a signal, with a median of 4.19 and one signal in twenty below 2.99, so weak values seen in few replicates may be background. Also given: how often the same scFv was detected with the empty control strains.

With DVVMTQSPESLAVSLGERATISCKSSISVLYESRNKNSVAWYQQKAGQPPKLLIYWASTRESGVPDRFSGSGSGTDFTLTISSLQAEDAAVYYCQPYHRLPLSFGGGTKVEIK the result was ND, ND, 5.21 (controls 1 of 9).
With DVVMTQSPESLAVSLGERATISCKSSQSTLYESRNKNSVAWYQQKAGQPPKLLIYWASTRMSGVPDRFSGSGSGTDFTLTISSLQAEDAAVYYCQQHHRLPLSFGGGTKVEIK the result was 3.46, 3.82, ND (mean 3.64; controls 1 of 9).
With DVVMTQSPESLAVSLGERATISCKSSQSVLYESDNKNSVAWYQQKAGQPPKLLIYWASTRESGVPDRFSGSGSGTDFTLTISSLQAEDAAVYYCQQYHRLPLSFGGGTKVEIK the result was 0.25, 0.50, 0.33 (mean 0.36; controls 3 of 9).
With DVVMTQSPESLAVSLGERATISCKSSQYVLYESRNKRSVAWYQQKAGQPPKLLIYWASTRESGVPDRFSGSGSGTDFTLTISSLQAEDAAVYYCQQYHRLYLSFGGGTKVEIK the result was 5.23, ND, ND (controls 1 of 9).
With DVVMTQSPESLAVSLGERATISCKSSQDVLYESRNKNSVHWYQQKAGQPPKLLIYWASTRESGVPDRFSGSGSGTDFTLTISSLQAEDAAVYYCQQYHRLPLKFGGGTKVEIK the result was ND, ND, ND (controls 0 of 9).
With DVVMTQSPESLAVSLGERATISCDSKQSVLYESRNKNSVAWYQQKAGQPPKLLIYWASTRESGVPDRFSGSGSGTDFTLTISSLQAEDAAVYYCSQYHRLPLSFGGGTKVEIK the result was 6.12, 4.49, ND (mean 5.31; controls 1 of 9).
With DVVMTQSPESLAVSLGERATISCKSSQSVLYESRQKNSVAWYQQKAGQPPKLLIYWASTRESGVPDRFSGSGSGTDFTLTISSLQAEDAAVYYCQQYHRDPLDFGGGTKVEIK the result was 2.73, 2.52, 2.63 (mean 2.63; controls 9 of 9).
With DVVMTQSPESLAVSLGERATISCKSSQSVLYPSRNKNSVAWYQQKAGQPPKLLIYWASTRELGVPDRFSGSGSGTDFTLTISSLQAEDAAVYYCQQYHILPLSFGGGTKVEIK the result was 4.34, 2.39, 2.76 (mean 3.16; controls 0 of 9).
With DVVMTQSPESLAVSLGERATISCQVSQSVLNESRNKNSVAWYQQKAGQPPKLLIYWASTRESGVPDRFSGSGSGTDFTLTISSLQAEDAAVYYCQQYHRLPLSFGGGTKVEIK the result was 0.30, 0.48, 0.37 (mean 0.38; controls 0 of 9).
With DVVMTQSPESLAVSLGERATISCKSSQSVLEESRNKNSVAWYQQKAGQPPKLLIYWASCRESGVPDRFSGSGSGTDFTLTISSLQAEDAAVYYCRQYHRLPLSFGGGTKVEIK the result was 1.57, 1.57, 1.36 (mean 1.50; controls 4 of 9).
With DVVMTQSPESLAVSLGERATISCKSSQSVLYRSRNKNSVAWYQQKAGQPPKLLIYWSSTRESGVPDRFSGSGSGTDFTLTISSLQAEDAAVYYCQQYHRLPLSFGGGTKVEIK the result was 4.78, ND, ND (controls 1 of 9).
With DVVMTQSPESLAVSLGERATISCNSSQSVTYESSNKNSVAWYQQKAGQPPKLLIYWASTRESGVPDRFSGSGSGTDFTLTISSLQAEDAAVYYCQQYHRLPLSFGGGTKVEIK the result was 0.22, 0.59, 0.33 (mean 0.38; controls 0 of 9).
With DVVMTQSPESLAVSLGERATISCKSSQSVLYESRNKHSVAWYQQKAGQPPKLLIYVASTREPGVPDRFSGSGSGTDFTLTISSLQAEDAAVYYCQQYHRLPLSFGGGTKVEIK the result was 3.40, 3.78, 4.54 (mean 3.91; controls 1 of 9).
With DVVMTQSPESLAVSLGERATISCKSSQSVLYRSRNKNSVAWYQQKAGQPPKLLIYWASTRESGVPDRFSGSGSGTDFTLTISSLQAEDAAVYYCQQLHDLPLSFGGGTKVEIK the result was 1.34, 1.41, 2.15 (mean 1.63; controls 0 of 9).
With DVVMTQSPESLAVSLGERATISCKSSQSVLGESRNKFSVAWYQQKAGQPPKLLIYWASTRESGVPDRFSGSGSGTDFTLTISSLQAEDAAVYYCQQYHRVPLSFGGGTKVEIK the result was ND, 3.04, 6.05 (mean 4.55; controls 1 of 9).
With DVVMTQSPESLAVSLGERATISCKSSQSVLYESRNKNSVAWYQQKAGQPPKLLIYWASTRESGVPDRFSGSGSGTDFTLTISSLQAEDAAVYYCQCYTRLPLSFGGGTKVEIK the result was ND, ND, ND (controls 0 of 9).
With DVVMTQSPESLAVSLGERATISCKSSQTVLDESLNKNSVAWYQQKAGQPPKLLIYWASTRESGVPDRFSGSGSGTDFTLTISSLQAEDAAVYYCQQYHRLPLSFGGGTKVEIK the result was 0.13, 0.36, 0.21 (mean 0.23; controls 7 of 9).
With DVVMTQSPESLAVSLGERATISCKHSQLVLYESRNKNSVAWYQQKAGQPPKLLIYWASTRESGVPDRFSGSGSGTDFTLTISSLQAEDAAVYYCQQYHRLPLSFGGGTKVEIK the result was 1.14, 1.28, 1.43 (mean 1.28; controls 0 of 9).
With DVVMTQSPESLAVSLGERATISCKSSQSNLYESRNKNPVAWYQQKAGQPPKLLIYWASTRESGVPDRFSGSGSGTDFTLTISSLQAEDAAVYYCTQYHRLPLSFGGGTKVEIK the result was 4.28, ND, 3.59 (mean 3.93; controls 3 of 9).

3 of these entries, quoted again:

For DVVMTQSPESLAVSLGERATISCKSSQSVLYPSRNKNSVAWYQQKAGQPPKLLIYWASTRELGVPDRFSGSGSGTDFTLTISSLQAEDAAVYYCQQYHILPLSFGGGTKVEIK, the assay gave 4.34, 2.39, 2.76 (mean 3.16; controls 0 of 9).
For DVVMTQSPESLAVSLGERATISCKSSQSVLYESRNKNSVAWYQQKAGQPPKLLIYWASTRESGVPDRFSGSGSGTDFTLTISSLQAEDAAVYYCQCYTRLPLSFGGGTKVEIK, the assay gave ND, ND, ND (controls 0 of 9).
For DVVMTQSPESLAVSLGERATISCKSSQSNLYESRNKNPVAWYQQKAGQPPKLLIYWASTRESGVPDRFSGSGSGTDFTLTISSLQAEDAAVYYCTQYHRLPLSFGGGTKVEIK, the assay gave 4.28, ND, 3.59 (mean 3.93; controls 3 of 9).

In this assay the parent's reference entry averaged 0.65; its copy inside this library read 1.68.